1 molecule from publication PMC2670829 (BMC Pharmacology, 2009) can be followed below.

The conditions of this data set: 24–72 hours after a single 8 mg/kg dose of rapamycin.

`CO[C@H]1C[C@@H]2CC[C@@H](C)[C@@](O)(O2)C(=O)C(=O)N2CCCC[C@H]2C(=O)O[C@H]([C@H](C)C[C@@H]2CC[C@@H](O)[C@H](OC)C2)CC(=O)[C@H](C)/C=C(\C)[C@@H](O)[C@@H](OC)C(=O)[C@H](C)C[C@H](C)/C=C/C=C/C=C/1C` [Rapamycin] displayed an Average rapamycin levels of 12 to 40 ng/mL.
